Only a part is listed here, and it is no random draw. Some results for these compounds are left out of this collection, so the calls shown say nothing about other tests. The source made the active and inactive calls. Cut-off read from the data, not from the text of the source: active = inhibition above about 50%; inactive = the rest.
The compounds below were run against Estrogen receptor (Homo sapiens) (UniProt P03372) (assay: ERα–SRC-1 coactivator interaction inhibitors, primary screen, biochemical, TR-FRET, ERα LBD, estradiol-bound (AID 629;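 note: 0% = receptor plus peptide control and 100% = peptide only without receptor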)). Settings: TR-FRET ER-alpha LBD / SRC-1 peptide, at 25.6 µM, hits give high values.

By UniProt entry, the sequences of proteins in these tests, tags left out.
UniProt P03372, whole entry: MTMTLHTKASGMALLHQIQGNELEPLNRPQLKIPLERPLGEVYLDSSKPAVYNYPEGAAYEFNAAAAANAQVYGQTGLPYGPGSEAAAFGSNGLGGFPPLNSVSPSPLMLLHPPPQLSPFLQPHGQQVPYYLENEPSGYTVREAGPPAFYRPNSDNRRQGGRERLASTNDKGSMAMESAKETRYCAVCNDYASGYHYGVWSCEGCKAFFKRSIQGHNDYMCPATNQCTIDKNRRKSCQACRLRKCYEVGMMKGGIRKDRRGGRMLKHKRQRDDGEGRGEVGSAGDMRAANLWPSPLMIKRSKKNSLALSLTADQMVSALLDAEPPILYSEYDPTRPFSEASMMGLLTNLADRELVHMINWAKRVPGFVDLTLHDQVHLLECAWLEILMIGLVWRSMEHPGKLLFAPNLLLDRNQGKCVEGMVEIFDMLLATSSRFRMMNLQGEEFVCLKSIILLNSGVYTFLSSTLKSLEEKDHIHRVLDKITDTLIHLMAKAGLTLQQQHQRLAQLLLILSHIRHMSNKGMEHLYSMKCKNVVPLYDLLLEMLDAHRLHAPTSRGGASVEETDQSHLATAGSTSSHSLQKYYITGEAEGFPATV

Row | SMILES | inhibition
1 | O=C(OC1CN2CCC1CC2)C(CO)(c1ccccc1)c1ccccc1 (configuration not stated) | inactive: -6.63%
2 | CN(C)c1cccc(C(=O)NCC2(N(C)C)CCCCC2)c1 | inactive: 3.39%

From PubChem BioAssay AID629 (Emory University Molecular Libraries Screening Center, 2007)
